From patent US20210261621A1, “Preparation of Dilipid Polymixins and Use Thereof as Antimicrobial Adjuvants” (priority 2018, published 2021)

Test system: P. aeruginosa PAO1
Design: unit not given beside the values
Conditions: antibiotic in combination with 1
Protocol: The potential of the dilipid polymyxins to serve as an adjuvant in combination with other antibiotics was evaluated against P. aeruginosa PAO1 strain (Tables 4 and 7-12). […] Checkerboard assays were performed with the dilipid polymyxins in combination with twenty-one clinically-used antibiotics. The panel included representatives from the β-lactam, carbapenem, tetracycline, aminoglycoside and fluoroquinolone antibiotic families. Other agents that are used to treat Gram-negative bacterial infection such as fosfomycin, trimethoprim and chloramphenicol were also included. […] Fractional inhibitory concentration (FIC) index was calculated for each combination to measure potential synergism between the two agents. FIC was obtained by dividing the MIC of antibiotic/adjuvant in combination by the MIC of antibiotic/adjuvant alone, while FIC index was calculated by the summation of FIC indices for the antibiotic and adjuvant. […] Initially, we assessed the adjuvant properties of PMBN against the panel of 21 antibiotics.
The assay was performed on 96-well plates as previously described. […] The fractional inhibitory concentration (FIC) of the antibiotic was calculated via dividing the MIC of antibiotic in the presence of adjuvant by the MIC of antibiotic alone. Similarly, the FIC of adjuvant was calculated via dividing the MIC of adjuvant in the presence of antibiotic by the MIC of adjuvant alone. […]

For `CO[C@H]1/C=C/O[C@@]2(C)Oc3c(C)c(O)c4c(O)c(c(/C=N/N5CCN(C)CC5)c(O)c4c3C2=O)NC(=O)/C(C)=C\C=C\[C@H](C)[C@H](O)[C@@H](C)[C@@H](O)[C@@H](C)[C@H](OC(C)=O)[C@@H]1C` [Rifampicin, reference compound], the MICDrug in combo was “(0.125)”.
